# Molecular target: human CB1 (cannabinoid receptor 1) (Homo sapiens, UniProt P21554)
# The chains behind the UniProt entries cited, without tags or fusion partners.
# UniProt P21554, whole entry: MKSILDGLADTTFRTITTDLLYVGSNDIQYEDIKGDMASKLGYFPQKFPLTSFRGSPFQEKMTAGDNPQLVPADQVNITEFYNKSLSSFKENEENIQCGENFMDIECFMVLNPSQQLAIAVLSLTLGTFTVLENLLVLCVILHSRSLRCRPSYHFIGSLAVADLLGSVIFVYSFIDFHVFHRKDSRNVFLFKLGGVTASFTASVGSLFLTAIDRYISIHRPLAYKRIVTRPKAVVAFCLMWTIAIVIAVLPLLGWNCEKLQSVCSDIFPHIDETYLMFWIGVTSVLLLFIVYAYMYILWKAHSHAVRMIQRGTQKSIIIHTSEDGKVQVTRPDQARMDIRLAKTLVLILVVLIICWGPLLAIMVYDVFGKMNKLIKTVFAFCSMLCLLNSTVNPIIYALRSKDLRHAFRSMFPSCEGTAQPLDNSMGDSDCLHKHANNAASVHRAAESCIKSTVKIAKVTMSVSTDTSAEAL
# Assay: CB1 receptor inhibition effect: calcium ion influx assay (Fluo-4 NW) in Chem-1 cells after 1 μM R-(+)-WIN55212-2
# Details: calcium ion influx in Chem-1 cells expressing human CB1, 1 μM R-(+)-WIN55212-2
# Description: When cells in which the cannabinoid receptor 1 (CB1) is stably expressed are treated with a CB1 receptor agonist, the CB1 receptor is activated and influx of calcium ions into the cells increases. CB1 receptor inhibition effect of a test compound can be evaluated by measuring the degree of calcium influx inhibition after treating with the test compound.
# First, Chem-1 cells (Chemicon International, #HTS019C) in which human CB1 cDNA is expressed stably were seeded onto a 96-well cell culture plate at a density of ˜50,000 cells/well and incubated overnight in a 5% CO2 incubator at 37° C. The next day, the culture medium was discarded and the cells were cautiously washed once using an assay buffer (HBSS containing 20 mM HEPES and 2.5 mM probenecid) with 200 μL/well. Calcium ion influx was measured using an assay kit (Fluo-4 NW calcium assay kit: Molecular Probes™, #F36206) according to the manufacturer's instructions. The compounds of Examples of desired concentration to be measured were comprised to 0.5% DMSO. For control, only 0.5% DMSO was used without the compounds of Examples. Reaction time was 10 minutes. After treating the Chem-1 cells stably expressing the CB1 receptor with 1 μM R-(+)-WIN55212-2 (Sigma, #W102), a CB1 receptor agonist, calcium ion (Ca^2+) flux induced thereby was measured for 80 seconds using Flex Station 3 (Molecular Device, USA).
# The difference in calcium ion concentration of the cells treated with the compounds of Examples or those treated with 1 μM R-(+)-WIN55212-2 was obtained from the difference of the maximum and minimum values during the 80 seconds. Then, % inhibition of the compounds for the CB1 receptor was calculated using the following equation. % inhibition={1−(ΔRFUcompound−ΔRFUBlank)/(ΔRFUControl−ΔRFUBlank)}×100 [Equation]
# ΔRFU: maximum relative fluorescence units−minimum relative fluorescence units
# ΔRFUCompound: difference in maximum and minimum RFUs in the well where the compounds of Examples dissolved in DMSO to a final concentration of 0.5% and 1 μM R-(+)-WIN55212-2 dissolved in DMSO to a final concentration of 0.5% were added
# ΔRFUBlank: difference in maximum and minimum RFUs in the well to which only 1% DMSO was added
# ΔRFUControl: difference in maximum and minimum RFUs in the well where 0.5% DMSO and 1 μM R-(+)-WIN55212-2 dissolved in DMSO to a final concentration of 0.5% were added
row,SMILES,IC50 [µM]
1,CCOCc1ccc(-c2c(C)nn3c(-c4cccc(C(F)(F)F)c4)cc(N4CCC[C@H]4CO)nc23)cc1,0.23
2,CCCc1ccc(-c2c(C)nn3c(-c4cccc(Cl)c4)cc(N4CCC[C@H]4CO)nc23)cc1,0.35
3,CSc1cccc(-c2c(C)nn3c(-c4cccc(C(F)(F)F)c4)cc(N4CCC[C@H]4CO)nc23)c1,0.062
4,COc1cccc(-c2cc(N3CCC[C@H]3CO)nc3c(-c4ccc5c(c4)OCO5)c(C)nn23)c1,0.3
5,CCc1ccc(-c2c(C)nn3c(-c4cccc(C)c4)cc(N4CCC[C@H]4CO)nc23)cc1,0.32
